We go through 49 compounds from PubChem BioAssay AID624169 (The Scripps Research Institute Molecular Screening Center, 2012).

Sequences of proteins named here, by UniProt entry; tags and fusion partners are left off.
UniProt P35363, whole entry: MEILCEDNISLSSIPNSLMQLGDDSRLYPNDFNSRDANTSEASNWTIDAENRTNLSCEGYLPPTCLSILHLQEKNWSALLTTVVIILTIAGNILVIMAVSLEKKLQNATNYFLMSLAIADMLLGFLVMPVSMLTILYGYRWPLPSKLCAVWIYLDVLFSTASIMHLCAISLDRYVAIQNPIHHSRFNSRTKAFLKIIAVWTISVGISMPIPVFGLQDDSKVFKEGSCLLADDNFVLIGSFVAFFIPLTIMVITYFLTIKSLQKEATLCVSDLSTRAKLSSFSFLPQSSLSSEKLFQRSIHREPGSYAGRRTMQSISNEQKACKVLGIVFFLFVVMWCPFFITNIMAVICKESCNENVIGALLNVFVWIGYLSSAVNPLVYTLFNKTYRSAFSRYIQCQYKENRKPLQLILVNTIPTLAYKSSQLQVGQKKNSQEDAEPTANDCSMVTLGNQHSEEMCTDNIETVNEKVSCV

The list shows a part of the results, in another mix than the full data. Some structures show a salt or complex split into parts, the way the source records it. The source made the active and inactive calls.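 The calls were made as follows: active = activation above a run cutoff, the mean activation of all tested compounds plus 3 SD (cut at about 14% in these data); inactive = the rest.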

The target of this assay is 5-hydroxytryptamine receptor 2A (Mus musculus) (UniProt P35363). In words: mouse Htr2a agonists via beta-arrestin recruitment, primary screen, cell-based, luminescence (AID 624169).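 Also: 0% = plate median of compound wells and 100% = 30 µM serotonin.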 The note with it: CHO-K1 mHTR2A beta-arrestin complementation, at 7.6 µM, active compounds read high, percent of 30 µM serotonin response. On the technique in general: Activated receptors often draw arrestin, which recruitment assays turn into a signal.
Take `O=[N+]([O-])c1cc([N+](=O)[O-])c(C(F)(F)F)c([N+](=O)[O-])c1O`: the activation is inactive: 14.4%. As for `Cc1ccccc1NP(C)(=O)Nc1ccccc1C`, the figure is inactive: 3.58%; as for `CP(=O)(Nc1ccc2c(c1)OCCO2)Oc1ccccc1` (centres undefined), inactive: -1.27%; as for `CCOP(C)(=S)SCC(=O)NC(C)(CC)C(=O)O` (centres undefined), inactive: 2.68%. The same measure for `CP(=O)(Nc1ccc(SC(F)(F)F)cc1)Oc1ccc(F)cc1` (centres undefined): inactive: -3.15%; for `Cc1c(C(c2ccc3c(c2)OCO3)c2c(C)n(C)n(-c3ccccc3)c2=O)c(=O)n(-c2ccccc2)n1C.O=[N+]([O-])c1cc([N+](=O)[O-])c(O)c([N+](=O)[O-])c1`: inactive: 1.66%.

For the compound `Cc1cc(-c2cccc3ccccc23)c(C)cn1.O=[N+]([O-])c1cc([N+](=O)[O-])c(O)c([N+](=O)[O-])c1`, the activation is inactive: -0.55%. The same measure for `O=[N+]([O-])c1cc([N+](=O)[O-])c(NCC2CCS(=O)(=O)C2)c([N+](=O)[O-])c1` (centres undefined): inactive: -1.8%; for `O=[N+]([O-])c1ccc(OP2(=O)COCCO2)cc1` (centres undefined): inactive: -0.55%; for `COc1ccc(NP(C)(=O)Oc2ccccc2OC)cc1` (centres undefined): inactive: 7.13%.

In the case of `CN(C)CCOC(=O)C(O)(c1ccccc1)C1CCCCC1` (centres undefined), the activation is inactive: -4.53%. The same measure for `COc1ccc(OP(C)(=O)Nc2cccc(Br)c2)cc1` (centres undefined): inactive: -1.08%. As for `O=[N+]([O-])c1cc([N+](=O)[O-])c(OC2CCCCC2O)c([N+](=O)[O-])c1` (centres undefined), the figure is inactive: 0.84%. The same measure for `CCCCCOc1ccc(NP(C)(=O)Oc2ccc(Cl)cc2Cl)cc1` (centres undefined): inactive: -1.52%; for `CP(=O)(Nc1ccccc1)Oc1ccc(F)cc1` (centres undefined): inactive: -1.12%. `CCN(CC)CCCOC(=O)C(O)(c1ccccc1)C1CCCCC1` (centres undefined): the activation is inactive: -9.23%. Consider `Cc1c([N+](=O)[O-])cc([N+](=O)[O-])c(Br)c1[N+](=O)[O-]`, for which the activation was inactive: -4.45%. On to `COc1ccc(OP(C)(=O)Nc2ccc(SC(F)(F)F)cc2)cc1` (centres undefined), for which the activation was inactive: -7.78%. Turning to `CCOC(=O)c1ccc(NP(C)(=O)Oc2ccc(F)cc2)cc1` (centres undefined), the activation is inactive: 0.3%. Regarding `CCN(CC)CCCNc1ccccc1[N+](=O)[O-].O=[N+]([O-])c1cc([N+](=O)[O-])c(O)c([N+](=O)[O-])c1`, the activation was inactive: -3.09%. Turning to `COc1ccc2c(c1O)-c1c(O)c(OC)cc3c1[C@H](C2)[N+](C)(C)CC3.O=[N+]([O-])c1cc([N+](=O)[O-])c([O-])c([N+](=O)[O-])c1[O-]`, the activation was inactive: 1.08%. As for `O=C(OCCN1CCN(CCOCc2ccccc2)CC1)C(O)(c1ccccc1)c1ccccc1`, the figure is inactive: -2.86%; as for `O=C(OC1CN2CCC1CC2)c1ccc([N+](=O)[O-])cc1` (centres undefined), inactive: 4.23%.

`CC(C)c1ccc(OP(C)(=O)Nc2ccc(SC(F)(F)F)cc2)cc1` (centres undefined): the activation is inactive: -4.41%.

On to `CP(=O)(Nc1ccccc1F)Oc1ccccc1` (centres undefined), for which the activation is inactive: -2.61%. As for `O=[N+]([O-])c1cc([N+](=O)[O-])c(Nc2ccc(Cl)cc2)c([N+](=O)[O-])c1`, the figure is inactive: -3.9%. As for `CCc1ccc(OP(C)(=O)O)cc1`, the figure is inactive: 1.54%; as for `CP(=O)(Nc1ccccn1)Oc1ccccc1` (centres undefined), inactive: 4.11%. The same measure for `COc1ccccc1OP(C)(=O)Nc1ccc(C)cc1C` (centres undefined): inactive: -0.49%; for `O=[N+]([O-])c1cc([N+](=O)[O-])c(Nc2ccccn2)c([N+](=O)[O-])c1`: inactive: -5.85%; for `Cc1c(NP(C)(=O)Oc2ccc(C(C)C)cc2)c(=O)n(-c2ccccc2)n1C` (centres undefined): inactive: -0.28%. Turning to `CN(C)CCOC(=O)C(O)(c1ccccc1)C1CCCC1` (centres undefined), the activation is inactive: -1.01%.

As for `COc1ccc(OP(C)(=O)Nc2ccccn2)cc1` (centres undefined), the activation is inactive: 1.65%. As for `COc1ccccc1OP(C)(=O)Nc1ccc(Br)cc1` (centres undefined), the figure is inactive: -1.62%.

For `CP(=O)(OCCOc1ccccc1)OCCOc1ccccc1`, the activation was inactive: 0.42%. The same measure for `CP(=O)(Nc1ccc(Cl)cc1Cl)Oc1ccccc1` (centres undefined): inactive: 2.24%. The same measure for `CCCCCCCCCCCCCCCC1C[N+](C)(C)CCOP(C)(=O)O1` (centres undefined): inactive: 4.11%; for `COc1ccc(OP(C)(=O)Nc2ccccc2Br)cc1` (centres undefined): inactive: -1.06%. As for `COc1ccccc1OP(C)(=O)Nc1ccc(C)c(C)c1` (centres undefined), the figure is inactive: -5.27%. For `O=C1C(O)=C([N+](=O)[O-])C(=O)C(O)=C1[N+](=O)[O-]`, the activation is inactive: -3.82%. Take `Cc1cc(C)cc(OP(C)(=O)Nc2cccc(C(F)(F)F)c2)c1` (centres undefined): the activation was inactive: 2.11%.

Take `CP(=O)(OC12CC3CC(CC(C3)C1)C2)OC12CC3CC(CC(C3)C1)C2`: the activation is inactive: -1.96%.

On to `CCOC(=O)c1ccc(NP(C)(=O)Oc2ccc(Cl)cc2)cc1` (centres undefined), for which the activation is inactive: -1.7%.

Take `CN(C)C(=O)c1c([N+](=O)[O-])cc([N+](=O)[O-])cc1[N+](=O)[O-]`: the activation is inactive: 2.52%. As to `CP(=O)(Nc1ccc(Cl)cc1)Oc1ccc(F)cc1` (centres undefined), the activation was inactive: 2.07%. The same measure for `CC(C)(C)c1ccc(OP(C)(=O)O)cc1`: inactive: 0.32%; for `COc1ccccc1OP(C)(=O)Nc1ccccc1Br` (centres undefined): inactive: 2.57%.

As to `CP(=O)(Oc1ccccc1)N1CCOC1=O` (centres undefined), the activation was inactive: -4.96%. With `CCc1ccc(OP(C)(=O)Nc2cccnc2)cc1` (centres undefined), the activation is inactive: 2.73%.
